Test: Intrinsic dissolution rate, Rotation Disc Method (USP 1087)
Type: physicochemical
Details: 37° C., 100 rpm, average of two measurements
Procedure: The intrinsic dissolution rate of raloxifene succinate, raloxifene DL-lactate, raloxifene L-lactate, raloxifene L-lactate hemihydrate, raloxifene malonate, raloxifene sulphate (2-propanol solvate) and raloxifene hydrochloride were tested in dilute solutions of hydrochloric acid and in dilute solutions of phosphorous acid containing NaCl in amounts so the chloride ion concentration in each solution was 0.1 M. The tests were performed at 37° C. and at pH of 1, 2, 3, 4, and 5, respectively. The raloxifene hydrochloride salt used in these experiments was purchased from Otto Bradt GmbH (batch MA/RF/12003) while the rest of the raloxifene acid additions salts were prepared according to Example 1-6.
The experiments were carried out following the procedure of Rotation Disc Method (USP 1087) using Vankel VK 7000 Intrinsic dissolution apparatus (Vankel Technology group, W. Vankelion) equipped with Vankel 12-4120 intrinsic disc having a surface area of 0.5 cm^2, Vankel 12-4130 surface plate, Vankel 12-4140 punch, and Vankel shaft and holder (surface area: 0.5 cm^2) and operating at a rotation rate of 100 rpm.
The buffer solution is handled in a 750 ml measuring bottle, degassed and transferred into a dissolution vessel. Approximately 100 mg compound is weighed out and transferred into an intrinsic disc. Said disc is then assembled, and to said disc a disc is applied in the IR-press at a pressure of 5 kN for 1 minute. The disc is started and samples of 10 ml are collected by use of “pressure vials” after 1, 10, 20, 30, 45, and 60 minutes. The change of volume is corrected using the equation: Q=Vs×(sumCn−1)+Cn×Vt wherein Q designates the volume at the time t, C designates the concentration of the sample n, Vt designates the volume of the liquid collected at the time t, and Vs designates the volume of the sample collected. The sample is measured against a standard using HPLC. In these measurements a 5 microns 3.9×150 mm column filled with symmetrical material is employed and as eluant a 20 mM phosphate buffer KH2PO4, pH 6.8 mixed with acetonitrile and tetrahydrofuran in the ratio 55:35:10 is used.
The standard is prepared by use of following procedure: 20 mg of salt is dissolved initially in 100 ml of MeOH and then 1 ml of this solution is transferred to a 50 ml flask with water and then 2 ml to a 20 ml flask of buffer in question.
pH 1: a 0.1 M HCl is used.
0.025 M Phosphate buffer solution pH 2.0: 3.40 g of potassium dihydrogen phosphate is dissolved in 900 ml of water. Then pH is adjusted to 2.0 with phosphoric acid and diluted to 1000.0 ml with water. Exactly 5.85 g of NaCl is added to 1 L of buffer.
0.025 M Phosphate buffer solution pH 3.0: 3.40 g of potassium dihydrogen phosphate is dissolved in 900 ml of water. Then pH is adjusted to 3.0 with phosphoric acid and diluted to 1000.0 ml with water. Exactly 5.85 g of NaCl is added to 1 L of buffer.
0.022 M Phosphate buffer solution pH 4.0: 3.0 g of potassium dihydrogen phosphate is dissolved in 800 ml of water. Then pH is adjusted with 1 M potassium hydroxide and phosphoric acid and diluted to 1000.0 ml with water. Exactly 5.85 g of NaCl is added to 1 L of buffer. 0.02 M Phosphate buffer solution pH 5.0: 2.72 g of potassium dihydrogen phosphate is dissolved in 800 ml of water. Then pH is adjusted with 1 M potassium hydroxide and diluted to 1000.0 ml with water. Exactly 5.85 g of NaCl is added to 1 L of buffer.

[6-hydroxy-2-(4-hydroxyphenyl)benzo[b]thien-3-yl][4-[2-(1-piperidinyl)ethoxy]phenyl-, sulphate (2-propanol solvate)
intrinsic dissolution rate (IDR) (Hydrochloride, pH 1 (0.1 M HCl)): 0.0036 μmol/min * cm^2 | intrinsic dissolution rate (IDR) (Phosphate, pH 2, chloride 0.1 M): 0.0137 μmol/min * cm^2 | intrinsic dissolution rate (IDR) (Phosphate, pH 3, chloride 0.1 M): 0.0052 μmol/min * cm^2 | intrinsic dissolution rate (IDR) (Phosphate, pH 4, chloride 0.1 M): 0.0109 μmol/min * cm^2 | intrinsic dissolution rate (IDR) (Phosphate, pH 5, chloride 0.1 M): 0.0081 μmol/min * cm^2

— US7964734B2, “Raloxifene acid addition salts and/or solvates thereof, improved method for purification of said raloxifene acid addition salts and/or solvates thereof and pharmaceutical compositions comprising these” (A/S Gea Farmaceutisk Fabrik, priority 2002, dated 2011)
